What was measured:
[1] = Drug-drug compatibility test under accelerated stability conditions (content and related substances by HPLC, appearance); conditions: for Content (SGLT-2 inhibitor): second value of the cell in mixtures
Protocol: A drug-drug compatibility test was conducted to identify an optimal combination of an angiotensin II receptor blocker (ARB) and a sodium-glucose cotransporter-2 (SGLT-2) inhibitor that remains stable without degradation during long-term storage.
Specifically, mixtures of an ARB and an SGLT-2 inhibitor were stored for 2 weeks under accelerated stability test conditions of 40±2°C and 75±5% relative humidity, and changes in the contents of the respective ingredients and related substances, as well as changes in appearance, such as color and agglomeration, were analyzed. Olmesartan, valsartan, and telmisartan were used as the ARBs, and empagliflozin, dapagliflozin propanediol monohydrate, and canagliflozin were used as the SGLT-2 inhibitors.
To analyze the contents of the active ingredients and the degree of formation of related substances, ten tablets of each mixture of the ARB and the SGLT-2 inhibitor stored for 1 week or 2 weeks were placed in each of three 100 mL flasks. A solution prepared by mixing a 0.01 M aqueous hydrochloric acid solution and acetonitrile at an appropriate ratio was added to extract the active ingredients, followed by stirring and HPLC analysis.
To evaluate appearance and viscosity, 10 g of each mixture of the ARB and the SGLT-2 inhibitor stored for 1 week or 2 weeks was exposed to 100 mL of purified water at room temperature for 10 minutes, and the appearance and viscosity of the mixture were then evaluated.

[2] = Nonclinical 13-week repeated oral administration: body weight; conditions: 13 weeks
Protocol: Ten male and ten female 6-week-old Sprague-Dawley rats per group were orally administered the test substances once daily for 13 weeks. During the test period, general clinical signs were observed, blood tests were performed, and urinary excretion volume was measured. After completion of the observation period, the rats were euthanized and necropsied, and the heart weight was measured.
Dapagliflozin propanediol hydrate was used as dapagliflozin, and telmisartan powder (23.9%) was used as telmisartan, each in an amount corresponding to the respective dose.
Dapagliflozin and/or telmisartan, alone or in combination, were repeatedly administered orally to normal SD rats for 13 weeks in the same manner as in Experimental Example 1-1, and body weight was measured.

[3] = Accelerated, Week 1, 40±2°C, 75±5% relative humidity
[4] = Accelerated, Week 2, 40±2°C, 75±5% relative humidity

OC[C@H]1O[C@@H](c2ccc(Cl)c(Cc3ccc(O[C@H]4CCOC4)cc3)c2)[C@H](O)[C@@H](O)[C@@H]1O
Appearance [1, 3]: Acceptable | Appearance [1, 4]: Acceptable | Appearance ([1]; Initial): Acceptable

CCCCC(=O)N(Cc1ccc(-c2ccccc2-c2nnn[nH]2)cc1)[C@H](C(=O)O)C(C)C
Appearance [1, 3]: Acceptable | Appearance [1, 4]: Acceptable | Appearance ([1]; Initial): Acceptable

CCOc1ccc(Cc2cc([C@@H]3O[C@H](CO)[C@@H](O)[C@H](O)[C@H]3O)ccc2Cl)cc1
Appearance [1, 3]: Acceptable | Content (SGLT-2 inhibitor) [1, 3]: 100.1% | Appearance [1, 4]: Acceptable | Content (SGLT-2 inhibitor) [1, 4]: 100.2% | Appearance ([1]; Initial): Acceptable | Content (SGLT-2 inhibitor) ([1]; Initial): 100.3% | body weight ([2]; female or male rats, dapagliflozin-alone administration group (9 mg/kg/day)): no significant reduction

Cc1ccc([C@@H]2O[C@H](CO)[C@@H](O)[C@H](O)[C@H]2O)cc1Cc1ccc(-c2ccc(F)cc2)s1
Appearance [1, 3]: Unacceptable | Appearance [1, 4]: Unacceptable | Appearance ([1]; Initial): Acceptable

CCCc1nc2c(C)cc(-c3nc4ccccc4n3C)cc2n1Cc1ccc(-c2ccccc2C(=O)O)cc1
Appearance [1, 3]: Acceptable | Appearance [1, 4]: Acceptable | Appearance ([1]; Initial): Acceptable | body weight ([2]; female rats, telmisartan-alone administration group (72 mg/kg/day)): no significant reduction

From EP4837573A1, “PHARMACEUTICAL COMPOSITION CONTAINING SODIUM-GLUCOSE COTRANSPORTER-2 INHIBITOR AND ANGIOTENSIN II RECEPTOR BLOCKER FOR PREVENTION OR TREATMENT OF OBESITY” (dated 2026)
